Assays:
[1] = target: PIK3CB (UniProt P42338); assay: Inhibition of PIK3CB Kinase Activity
[2] = target: PIK3CG (UniProt P48736); assay: Inhibition of PIK3CG Kinase Activity

Protein sequences, listed by entry. Tags and fused reporters are not part of them. Lines headed by an entry give the natural chain unless they say otherwise; changes in a name come on top.
UniProt P42338: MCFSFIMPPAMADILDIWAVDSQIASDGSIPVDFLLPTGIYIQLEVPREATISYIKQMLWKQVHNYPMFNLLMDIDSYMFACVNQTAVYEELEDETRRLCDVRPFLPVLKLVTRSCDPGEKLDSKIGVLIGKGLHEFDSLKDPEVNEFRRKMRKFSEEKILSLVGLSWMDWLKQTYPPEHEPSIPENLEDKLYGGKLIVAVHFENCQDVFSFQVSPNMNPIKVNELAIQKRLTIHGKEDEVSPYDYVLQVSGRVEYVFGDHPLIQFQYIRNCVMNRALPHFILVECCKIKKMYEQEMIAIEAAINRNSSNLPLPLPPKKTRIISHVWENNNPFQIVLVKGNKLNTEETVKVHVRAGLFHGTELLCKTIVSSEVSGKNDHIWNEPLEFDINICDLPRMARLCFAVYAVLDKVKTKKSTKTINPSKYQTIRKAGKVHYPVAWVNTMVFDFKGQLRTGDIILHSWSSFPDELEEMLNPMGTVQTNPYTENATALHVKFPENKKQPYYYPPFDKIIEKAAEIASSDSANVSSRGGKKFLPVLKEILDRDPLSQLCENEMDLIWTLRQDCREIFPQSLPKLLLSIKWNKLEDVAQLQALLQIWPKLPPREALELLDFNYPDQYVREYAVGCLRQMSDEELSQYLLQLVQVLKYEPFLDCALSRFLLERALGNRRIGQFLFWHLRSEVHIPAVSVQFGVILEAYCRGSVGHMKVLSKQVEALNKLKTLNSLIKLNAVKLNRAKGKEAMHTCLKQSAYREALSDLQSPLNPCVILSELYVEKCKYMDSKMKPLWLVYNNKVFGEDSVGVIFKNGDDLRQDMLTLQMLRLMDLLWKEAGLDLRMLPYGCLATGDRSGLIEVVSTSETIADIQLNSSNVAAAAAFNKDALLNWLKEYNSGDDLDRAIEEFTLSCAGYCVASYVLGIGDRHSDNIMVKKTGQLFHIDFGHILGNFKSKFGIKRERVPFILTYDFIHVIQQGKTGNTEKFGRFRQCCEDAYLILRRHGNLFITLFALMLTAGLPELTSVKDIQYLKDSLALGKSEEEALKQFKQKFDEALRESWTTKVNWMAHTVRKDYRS
UniProt P48736: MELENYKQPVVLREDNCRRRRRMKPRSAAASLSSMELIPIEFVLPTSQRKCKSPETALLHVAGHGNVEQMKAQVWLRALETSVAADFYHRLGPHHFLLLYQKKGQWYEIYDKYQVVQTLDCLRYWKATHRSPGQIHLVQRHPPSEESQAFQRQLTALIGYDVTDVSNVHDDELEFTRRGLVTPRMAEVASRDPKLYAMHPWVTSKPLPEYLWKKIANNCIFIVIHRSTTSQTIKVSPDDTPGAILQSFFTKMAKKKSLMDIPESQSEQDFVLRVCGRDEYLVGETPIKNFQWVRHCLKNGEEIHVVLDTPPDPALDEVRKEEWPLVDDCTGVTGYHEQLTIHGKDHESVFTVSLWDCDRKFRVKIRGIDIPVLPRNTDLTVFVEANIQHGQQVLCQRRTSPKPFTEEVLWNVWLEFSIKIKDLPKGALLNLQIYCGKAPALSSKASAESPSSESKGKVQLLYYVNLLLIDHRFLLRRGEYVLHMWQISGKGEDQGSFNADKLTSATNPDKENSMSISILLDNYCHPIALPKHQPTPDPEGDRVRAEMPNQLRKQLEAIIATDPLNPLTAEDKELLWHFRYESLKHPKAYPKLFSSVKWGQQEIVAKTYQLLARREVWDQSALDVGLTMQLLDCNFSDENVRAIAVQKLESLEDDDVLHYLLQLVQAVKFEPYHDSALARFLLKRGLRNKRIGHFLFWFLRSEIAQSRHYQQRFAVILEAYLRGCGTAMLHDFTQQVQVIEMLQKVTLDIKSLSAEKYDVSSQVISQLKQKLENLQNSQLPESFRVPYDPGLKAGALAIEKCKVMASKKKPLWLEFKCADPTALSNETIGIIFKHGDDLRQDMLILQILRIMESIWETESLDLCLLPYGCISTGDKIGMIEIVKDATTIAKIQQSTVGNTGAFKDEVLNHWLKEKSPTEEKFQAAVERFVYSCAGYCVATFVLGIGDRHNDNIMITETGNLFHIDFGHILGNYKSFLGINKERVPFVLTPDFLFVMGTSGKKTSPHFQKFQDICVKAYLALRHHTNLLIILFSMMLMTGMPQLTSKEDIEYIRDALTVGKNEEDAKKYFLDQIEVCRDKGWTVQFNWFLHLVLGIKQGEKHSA

IC50 [1]: 0.34 µM
IC50 [2]: 1.6 µM
SMILES: O=c1cc(N2CCOCC2)oc2c(-c3ccccc3)cccc12
